Measurements reported in US20240158446A1, “CYCLIC COMPOUND HAVING SELECTIVE INHIBITORY ACTION ON KRAS OVER HRAS AND NRAS” (CHUGAI SEIYAKU KABUSHIKI KAISHA, priority 2021, published 2024).

What was measured:
[1] = system: human lung cancer strain NCI-H441; conditions: read-out: NCI-H441 IC50; NCI-H441 cells, four days, CellTiter-Glo;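 note: cell proliferation inhibition after four days measured by CellTiter-Glo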
[2] = target: GDP-bound NRAS wild-type protein (Homo sapiens, UniProt P01111); test: Binding to NRAS by surface plasmon resonance (SPR), Single Cycle Kinetics; conditions: GDP-bound NRAS wild-type protein vs GDP-bound KRAS wild-type protein
[3] = target: GDP-bound HRAS wild-type protein (Homo sapiens, UniProt P01112); test: Binding to HRAS by surface plasmon resonance (SPR), Single Cycle Kinetics; conditions: GDP-bound HRAS wild-type protein vs GDP-bound KRAS wild-type protein
[4] = target: GDP-bound KRAS wild-type protein (Homo sapiens, UniProt P01116); test: Binding to KRAS by surface plasmon resonance (SPR), Single Cycle Kinetics; conditions: KRAS KD (M), 1:1 binding model

Row | SMILES | IC50 [1] [µM] | NRAS/KRAS (ratio of KD value for NRAS to KD value for KRAS) [2] | HRAS/KRAS (ratio of KD value for HRAS to KD value for KRAS) [3] | Kd [4] [M]
1 | CC[C@H](C)[C@@H]1NC(=O)[C@H](COC)N(C)C(=O)C[C@@H](C(=O)N(C)CC)N(C)C(=O)[C@H](C2CCCC2)N(C)C(=O)C2(CC(C)(C)C2)NC(=O)[C@@H]2C[C@H](C)CN2C(=O)[C@H](CCc2ccc(C(F)(F)F)c(OC)c2)NC(=O)CN(C)C(=O)[C@H](Cc2ccc(C)cc2)N2CC/C=C\C[C@@H](C2=O)N(C)C(=O)CN(C)C1=O [PP2504] | 0.0129 |  |  | 
2 | CCC[C@H]1C(=O)N[C@@H]([C@@H](C)CC)C(=O)N(C)CC(=O)N(C)[C@H]2C/C=C\CCN(C2=O)[C@@H](Cc2ccc(C)cc2)C(=O)N(C)CC(=O)N[C@@H](CCc2cc(F)c(C(F)(F)F)c(F)c2)C(=O)N2CC3(CC3)C[C@H]2C(=O)NC2(CC(C)(C)C2)C(=O)N(C)[C@@H](CC(C)C)C(=O)N(C)[C@H](C(=O)N(C)C)CC(=O)N1C [PP3004] | 0.0192 | A (a compound having 10 or more and less than 20 is denoted as A) | A (a compound having 10 or more and less than 20 is denoted as A) | 
3 | CCO[C@@H]1C[C@H]2C(=O)NC3(CCC3)C(=O)N(C)[C@@H](C3CCCC3)C(=O)N(C)[C@H](C(=O)N(CC)CC)CC(=O)N(C)[C@@H](CC3CC3)C(=O)N[C@@H]([C@@H](C)CC)C(=O)N(C)CC(=O)N(C)[C@H]3C/C=C\CCN(C3=O)[C@@H](Cc3ccc(C(F)(F)F)cc3)C(=O)N(C)CC(=O)N[C@@H](CCc3cc(F)c(C(F)(F)F)c(F)c3)C(=O)N2C1 [PP1307] |  |  |  | 1.4e-10
4 | CCO[C@@H]1C[C@H]2C(=O)NC3(CCC3)C(=O)N(C)[C@@H](C3CCCC3)C(=O)N(C)[C@H](C(=O)N(C)C)CC(=O)N(C)[C@@H](CC(C)C)C(=O)N[C@@H]([C@@H](C)CC)C(=O)N(C)CC(=O)N(C)[C@H]3CC(C)=C(C)CN(C3=O)[C@@H](Cc3ccc(C(F)(F)F)cc3)C(=O)N(C)CC(=O)N[C@@H](CCc3cc(F)c(C(F)(F)F)c(F)c3)C(=O)N2C1 [PP1046] | 0.109 | C (A compound having a KD ratio of 0.1 or more and less than 3 is denoted as C) | C (A compound having a KD ratio of 0.1 or more and less than 3 is denoted as C) | 
